Measured values as given in patent US20130102662A1, “USE OF INDUCIBLE NITRIC OXIDE SYNTHASE INHIBITORS AND NITRIC OXIDE […] INHIBIT POST-TRAUMATIC IMMUNODEPRESSION” (University of Pittsburgh - of the Commonwealth System of …, priority 2011, published 2013).
Entries after “also recorded” stand apart in the source; their conditions may differ.

Tested on: splenocytes
Test: Splenocyte proliferation (tritiated thymidine uptake) 48 hours after pseudofracture trauma, mice given 1400 W
Assay type: in vivo
Conditions: C57BL/6 mice, 1400 W 5 mg/kg intraperitoneally, antiCD3e 1 μg/ml (FIG. 5)

SMILES: CC(=N)NCc1cccc(CN)c1 [1400 W, N-(3-(Aminomethyl)benzyl)acetamidine]
- Splenocyte proliferative responses to antiCD3e after trauma: restores the proliferation response; also recorded: restored
